Results as given in paper PMC5034805 (Journal of Clinical Pharmacology, 2015).

Assay: Safety evaluation in the ketoconazole interaction study
Assay type: in vivo, human (patients with advanced cancer)
Conditions: ketoconazole 400 mg daily days 4-8 with romidepsin 8 mg/m^2

CC(=O)N1CCN(c2ccc(OCC3COC(Cn4ccnc4)(c4ccc(Cl)cc4Cl)O3)cc2)CC1 (stereo not shown) [ketoconazole]
Effect on the QT interval: No effect on the QT interval
